Results taken from patent publication US20040175401A1, “Enhanced parmacokinetic profile of hydrophobic substances” (priority 2001, published 2004).

Experiment: n-octanol/water partition coefficient LogPoct calculated from solubility data
Conditions: calculated as logPoct = (0.99 - logSw)/1.34

Q: For CCCCC(=O)OCN1C(=O)NC(c2ccccc2)(c2ccccc2)C1=O [3-pentanoyloxymethyl-5,5-diphenylhydantoin], which LogPoct is on record?
A: Its LogPoct is 4.23.

Q: With O=C1NC(=O)C2(CCCCCC2)C(=O)N1 [5,5-CH2)6-barbituric acid] as the compound, how does the LogPoct read?
A: Its LogPoct is 3.10.

Q: For C=CCC1(C(C)C)C(=O)NC(=O)NC1=O [5-iPr-5-allyl-barbituric acid], which LogPoct is on record?
A: Its LogPoct is 2.01.

Q: With CC(=O)/C=C/C1C(C)=CCCC1(C)C (stereo not shown) [a-ionone] as the compound, how does the LogPoct read?
A: Its LogPoct is 3.02.
